Results from US9840501B2, “Morpholin-pyridine derivatives” (Hoffmann-La Roche Inc., priority 2014, dated 2017).

By UniProt entry, the sequences of proteins in these tests, tags left out.
UniProt Q923Y9, whole entry: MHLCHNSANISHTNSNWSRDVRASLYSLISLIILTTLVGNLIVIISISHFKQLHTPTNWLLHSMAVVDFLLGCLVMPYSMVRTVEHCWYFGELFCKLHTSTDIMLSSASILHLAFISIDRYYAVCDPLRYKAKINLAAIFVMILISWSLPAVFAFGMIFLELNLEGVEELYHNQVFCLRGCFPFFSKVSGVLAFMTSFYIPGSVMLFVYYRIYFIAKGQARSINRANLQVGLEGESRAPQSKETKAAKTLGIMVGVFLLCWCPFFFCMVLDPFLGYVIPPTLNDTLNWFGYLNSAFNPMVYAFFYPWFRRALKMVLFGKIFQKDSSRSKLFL
UniProt Q923Y8, whole entry: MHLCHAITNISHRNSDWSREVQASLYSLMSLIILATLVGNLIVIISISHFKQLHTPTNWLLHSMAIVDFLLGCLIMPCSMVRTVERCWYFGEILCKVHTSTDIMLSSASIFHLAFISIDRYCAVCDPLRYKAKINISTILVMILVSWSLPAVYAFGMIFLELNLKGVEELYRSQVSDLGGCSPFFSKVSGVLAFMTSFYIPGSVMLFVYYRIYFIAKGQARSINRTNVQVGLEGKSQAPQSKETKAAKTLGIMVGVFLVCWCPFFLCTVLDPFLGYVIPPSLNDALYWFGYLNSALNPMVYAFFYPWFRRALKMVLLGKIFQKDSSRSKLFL

Tests used:
[1] = target: rat TAAR1 (Rattus norvegicus (Rat), UniProt Q923Y9); assay: Radioligand binding assay on rat TAAR1; details: rat TAAR1, membranes of stably transfected HEK-293 cells; second value of the pair; read-out: Ki (μM) mouse/rat: rat
Procedure: (§1) For the construction of expression plasmids the coding sequences of human, rat and mouse TAAR 1 were amplified from genomic DNA essentially as described by Lindemann et al.. The Expand High Fidelity PCR System (Roche Diagnostics) was used with 1.5 mM Mg^2+ and purified PCR products were cloned into pCR2.1-TOPO cloning vector (Invitrogen) following the instructions of the manufacturer. PCR products were subcloned into the pIRESneo2 vector (BD Clontech, Palo Alto, Calif.), and expression vectors were sequence verified before introduction in cell lines.
(§2) For the generation of stably transfected cell lines HEK293 cells were transfected with the pIRESneo2 expression plasmids containing the TAAR coding sequences (described above) with Lipofectamine 2000 (Invitrogen) according to the instructions of the manufacturer, and 24 hrs post transfection the culture medium was supplemented with 1 mg/ml G418 (Sigma, Buchs, Switzerland). After a culture period of about 10 d clones were isolated, expanded and tested for responsiveness to trace amines (all compounds purchased from Sigma) with the cAMP Biotrak Enzyme immunoassay (EIA) System (Amersham) following the non-acetylation EIA procedure provided by the manufacturer.
Radioligand Binding Assay on Rat TAAR1
(§3) Membrane Preparation and Radioligand Binding.
(§4) Cells were released from culture flasks using trypsin/EDTA, harvested, washed twice with ice-cold PBS (without Ca^2+ and Mg^2+), pelleted at 1′000 rpm for 5 min at 4° C., frozen and stored at −80° C. Frozen pellets were suspended in 20 ml HEPES-NaOH (20 mM, pH 7.4) containing 10 mM EDTA and homogenized with a Polytron (PT 6000, Kinematica) at 14′000 rpm for 20 s. The homogenate was centrifuged at 48′000×g for 30 min at 4° C. Subsequently, the supernatant was removed and discarded, and the pellet resuspended in 20 ml HEPES-NaOH (20 mM, pH 7.4) containing 0.1 mM EDTA using the Polytron (20 s at 14′000 rpm). This procedure was repeated and the final pellet resuspended in HEPES-NaOH containing 0.1 mM EDTA and homogenized using the Polytron. Typically, aliquots of 2 ml membrane portions were stored at −80° C. With each new membrane batch the dissociation constant (Kd) was determined via a saturation curve. […] Nonspecific binding was defined as the amount of ^3[H]—(S)-4-[(ethyl-phenyl-amino)-methyl]-4,5-dihydro-oxazol-2-ylamine bound in the presence of 10 μM unlabeled ligand. All compounds were tested at a broad range of concentrations (10 pM to 10 μM) in duplicates. […] The 96 deep well plates were incubated for 1 hr at 4° C. Incubations were terminated by rapid filtration through Unifilter-96 plates (Packard Instrument Company) and glass filters GF/C (Perkin Elmer) presoaked for 1 hr in polyethylenimine (0.3%) and washed 3 times with 1 ml of cold binding buffer. After addition of 45 μl of Microscint 40 (PerkinElmer) the Unifilter-96 plate was sealed and after 1 hr the radioactivity counted using a TopCount Microplate Scintillation Counter (Packard Instrument Company).

[2] = target: mouse TAAR1 (Mus musculus (Mouse), UniProt Q923Y8); assay: Radioligand binding assay on mouse TAAR1; details: mouse TAAR1, membranes of stably transfected HEK-293 cells; first value of the pair; read-out: Ki (μM) mouse/rat: mouse
Procedure: as §1, §2
Radioligand Binding Assay on Mouse TAAR1
as §3
as §4, with “1,000” for “1′000”, “48,000×g” for “48′000×g”

Structure (SMILES)	Ki [1] [µM]	Ki [2] [µM]
Clc1cccc(Nc2ccc(C3CNCCO3)nc2)c1 (racemic) [Example 4, (RS)—N-(3-Chlorophenyl)-6-morpholin-2-yl-pyridin-3-amine]	0.0794	0.0034
FC(F)(F)c1ccc(Nc2ccc(C3CNCCO3)nc2)cc1 (racemic) [Example 6, (RS)-6-Morpholin-2-yl-N-[4-(trifluoromethyl)phenyl]pyridin-3-amine]	0.0159	–
FC(F)(F)c1ccc(Nc2cnc(C3CNCCO3)c(Cl)c2)nc1 (racemic) [Example 103, (RS)-5-Chloro-6-morpholin-2-yl-N-[5-(trifluoromethyl)-2-pyridyl]pyridin-3-amine]	–	0.0677
CCCc1n[nH]c(C(=O)Nc2cnc(C3CNCCO3)c(Cl)c2)c1Cl (racemic) [Example 108, (RS)-4-Chloro-N-(5-chloro-6-morpholin-2-yl-3-pyridyl)-3-propyl-1H-pyrazole-5-carboxamide]	0.0321	–
Fc1cc(Nc2ccc(Cl)cn2)cnc1C1CNCCO1 (racemic) [Example 110, (RS)—N-(5-Chloro-2-pyridyl)-5-fluoro-6-morpholin-2-yl-pyridin-3-amine]	–	0.0245
FC(F)(F)c1ccc(Nc2ccc([C@@H]3CNCCO3)nc2)cc1 [Example 19, 6-[(2S)-Morpholin-2-yl]-N-[4-(trifluoromethyl)phenyl]pyridin-3-amine]	–	0.0027
FC(F)(F)c1ccc(Nc2ccc([C@H]3CNCCO3)nc2)cc1 [Example 25, 6-[(2R)-Morpholin-2-yl]-N-[4-(trifluoromethyl)phenyl]pyridin-3-amine]	0.0254	0.0048
O=C(Nc1ccc([C@@H]2CNCCO2)nc1)c1cccc(Cl)c1 [Example 32, 3-Chloro-N-[6-[(2S)-morpholin-2-yl]-3-pyridyl]benzamide]	–	0.0028
O=C(Nc1ccc([C@@H]2CNCCO2)nc1)c1ccnc(C(F)(F)F)c1 [Example 34, N-[6-[(2S)-Morpholin-2-yl]-3-pyridyl]-2-(trifluoromethyl)pyridine-4-carboxamide]	–	0.0427
O=C(Nc1ccc([C@@H]2CNCCO2)nc1)Nc1cccc(Cl)c1 [Example 41, 1-(3-Chlorophenyl)-3-[6-[(2S)-morpholin-2-yl]-3-pyridyl]urea]	–	0.0016
O=C(Nc1ccc([C@H]2CNCCO2)nc1)c1ccnc(C(F)(F)F)c1 [Example 54, N-[6-[(2R)-Morpholin-2-yl]-3-pyridyl]-2-(trifluoromethyl)pyridine-4-carboxamide]	–	0.0329
O=C(Nc1ccc([C@H]2CNCCO2)nc1)Nc1cccc(Cl)c1 [Example 61, 1-(3-Chlorophenyl)-3-[6-[(2R)-morpholin-2-yl]-3-pyridyl]urea]	0.0132	0.0035
CCOc1n[nH]c(C(=O)Nc2ccc([C@H]3CNCCO3)nc2)c1Cl [Example 100, 4-Chloro-3-ethoxy-N-[6-[(2R)-morpholin-2-yl]-3-pyridyl]-1H-pyrazole-5-carboxamide]	–	0.0158
O=C(Nc1ccc([C@H]2CNCCO2)nc1)c1[nH]nc(OCC(F)(F)F)c1Cl [Example 101, 4-Chloro-N-[6-[(2R)-morpholin-2-yl]-3-pyridyl]-3-(2,2,2-trifluoroethoxy)-1H-pyrazole-5-carboxamide]	–	0.0094
CCOc1n[nH]c(C(=O)Nc2ccc([C@@H]3CNCCO3)nc2)c1Cl [Example 106, 4-Chloro-3-ethoxy-N-[6-[(2S)-morpholin-2-yl]-3-pyridyl]-1H-pyrazole-5-carboxamide]	–	0.0085
